Values quoted from earlier work, collected in patent US7422793B2, “Non-toxic corrosion-protection rinses and seals based on rare earth elements” (University of Dayton, priority 2002, dated 2008).
Converted amounts (≈) assume the structure as drawn. Read-outs that look alike come from different tables or passages of the source.

Conditions: at or near 25° C. and at or near pH 7, cited from earlier work

Compound	Solubility in Water (oxidizer sources)	Solubility in Water (cerium or praseodymium source)
O=NO	13.5 mol/L (≈ 635 mg/mL)	
Potassium chlorate	0.58 mol/L	
Barium perchlorate	5.1 × 10^0 mole/L	
Ammonium permanganate	0.577 mol/L	
Potassium perchlorate	0.36 mol/L	
Praseodymium (III) perchlorate		2.2 × 10^0 mole/L
Barium chlorate	0.85 mol/L	
